From patent US6803379B2, “PHARMACOLOGICAL AGENTS AND METHODS OF TREATMENT THAT INACTIVATE PATHOGENIC PROKARYOTIC AND EUKARYOTIC CELLS AND VIRUSES BY ATTACKING HIGHLY CONSERVED DOMAINS IN STRUCTURAL METALLOPROTEIN AND METALLOENZYME TARGETS” (priority 2002, dated 2004)

Tested on: panel of 60 different cancer cell lines
Assay: NIH screening assay, panel of 60 cancer cell lines

Compound: O=C(O)c1cccs1 [2-TH acid, 2-thiophenecarboxylic acid]
- inhibition of cancer cell lines: can inhibit a panel of 60 different cancer cell lines
